Experimental data published in paper PMC3026633 (Neuropharmacology, 2010).

Chains of the proteins cited; added tags and fusions are not shown. Lines headed by an entry give the natural chain unless they say otherwise; changes in a name come on top. Residues count along the entry.
UniProt P18508, 39-466: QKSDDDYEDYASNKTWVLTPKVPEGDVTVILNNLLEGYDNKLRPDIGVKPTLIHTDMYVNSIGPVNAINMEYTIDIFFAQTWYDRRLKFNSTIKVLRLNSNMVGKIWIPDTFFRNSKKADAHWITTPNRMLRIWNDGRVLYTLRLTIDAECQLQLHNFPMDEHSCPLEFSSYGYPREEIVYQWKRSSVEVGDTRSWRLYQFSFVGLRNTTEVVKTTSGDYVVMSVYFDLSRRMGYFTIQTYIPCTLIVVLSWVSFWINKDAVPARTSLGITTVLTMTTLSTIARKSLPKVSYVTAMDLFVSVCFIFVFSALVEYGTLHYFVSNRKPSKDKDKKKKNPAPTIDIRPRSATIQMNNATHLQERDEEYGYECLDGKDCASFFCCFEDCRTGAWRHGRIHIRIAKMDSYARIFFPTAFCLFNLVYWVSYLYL
UniProt P62813, 28-455 R158C: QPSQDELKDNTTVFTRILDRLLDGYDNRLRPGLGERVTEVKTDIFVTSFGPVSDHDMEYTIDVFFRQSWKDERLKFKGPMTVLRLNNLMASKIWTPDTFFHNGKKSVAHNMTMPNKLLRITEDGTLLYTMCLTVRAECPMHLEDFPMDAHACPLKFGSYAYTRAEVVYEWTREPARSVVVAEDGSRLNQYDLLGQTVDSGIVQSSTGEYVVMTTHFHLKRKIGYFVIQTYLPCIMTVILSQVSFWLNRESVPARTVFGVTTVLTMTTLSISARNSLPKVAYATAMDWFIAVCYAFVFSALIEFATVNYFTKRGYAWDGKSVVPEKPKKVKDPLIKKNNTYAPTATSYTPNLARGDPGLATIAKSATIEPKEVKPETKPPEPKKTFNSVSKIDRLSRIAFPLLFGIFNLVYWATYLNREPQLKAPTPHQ
UniProt P63138, 25-474 limits assumed: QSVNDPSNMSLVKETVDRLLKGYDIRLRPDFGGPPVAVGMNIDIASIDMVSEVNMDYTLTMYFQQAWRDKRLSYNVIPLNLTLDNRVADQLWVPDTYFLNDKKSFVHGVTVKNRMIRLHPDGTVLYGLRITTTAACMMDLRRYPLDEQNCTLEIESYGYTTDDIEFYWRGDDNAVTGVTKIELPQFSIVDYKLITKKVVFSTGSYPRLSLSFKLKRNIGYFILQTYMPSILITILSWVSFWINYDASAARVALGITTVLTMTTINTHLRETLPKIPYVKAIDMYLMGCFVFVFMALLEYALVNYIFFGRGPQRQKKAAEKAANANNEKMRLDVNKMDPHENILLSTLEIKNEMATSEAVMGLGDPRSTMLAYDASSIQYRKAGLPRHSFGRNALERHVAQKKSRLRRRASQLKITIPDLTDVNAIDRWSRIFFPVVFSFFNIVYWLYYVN

What follows are compounds tested against α1R131Cβ2γ2 GABAR (Rattus norvegicus, UniProt P18508+P62813+P63138, R158C) (assay: Rate of MTS modification of introduced cysteine). Conditions: relative to control (MTS alone); 10μM flurazepam, DMCM, low non-activating PB.

Row | SMILES | fold faster MTSEA-biotin reaction at α1R131C
1 | CCCC(C)C1(CC)C(=O)NC(=O)NC1=O (stereo not drawn) [Pentobarbital, pentobarbital] | had no effect
2 | CCc1c(C(=O)OC)ncc2[nH]c3cc(OC)c(OC)cc3c12 [DMCM, 3-carbomethoxy-4-ethyl-6,7-dimethoxy-β-carboline] | 1.9 fold
3 | CCN(CC)CCN1C(=O)CN=C(c2ccccc2F)c2cc(Cl)ccc21 [Flurazepam] | 2.1 fold
